Assay results from patent publication US7993660B2, “Method of increasing immunological effect” (IRx Therapeutics, Inc., priority 2007, dated 2011).

Key:
H&NSCC tumor = conditions: published studies (De Stefani, Timar); cited from earlier work
[1] = tested on: activated peripheral blood CD4+ T-lymphocytes; assay: Caspase activation (FITC-VAD-FMK staining, flow cytometry) in activated primary CD4+ T cells; type: cell-based, human; conditions: 24 hours pre-incubation (IRX-2 1:3, IL-2 100 IU/mL, IL-7/IL-15 10 ng/mL)
Description: (§1) The head and neck squamous cell carcinoma (H&NSCC) cell line […] was established in Applicants' laboratory and maintained as previously described. It was retrovirally transfected with the human FasL gene obtained from Dr. S. Nagata (Osaka Biosciences Institute, Osaka, Japan) as previously reported. Supernatants of transfected PCI-13-cells (PCI-13-FasL), which contained both sFasL and the 42 kDa membranous form of FasL, were used as a source of tumor-derived microvesicles (MV). Jurkat cells were obtained from American Tissue Culture Collection (ATCC, Manassas, Va.) and were transfected with CD8. […]
(§2) Four color flow cytometry was performed using a […] (Beckman Coulter) equipped with Expo32 software (Beckman Coulter). […] Data was analyzed using Coulter EXPO 32vl.2 analysis software.
(§3) Total cellular Caspase activity was tested by intracellular staining of activated caspases using a pan caspase inhibitor, CASPACE FITC-VAD-FMK In Situ Marker (Promega, Madison, Wis.). […] Then cells were stained for cell surface receptors, fixed with 1% paraformaldehyde and analyzed by flow cytometry. The specific activation of caspase-3 and caspase-7 was measured using the VYBRANT FAM caspase-3 and -7 Assay Kit from Invitrogen (Carlsbad, Calif.) according to the manufacturers' instructions. […]

[2] = tested on: activated peripheral blood CD8+ T-lymphocytes; assay: Caspase activation (FITC-VAD-FMK staining, flow cytometry) in activated primary CD8+ T cells; type: cell-based, human; conditions: 24 hours pre-incubation (IRX-2 1:3, IL-2 100 IU/mL, IL-7/IL-15 10 ng/mL)
Description: as §1, §2, §3

[3] = Table 2A MV-induced apoptosis, then 10 μg MV 24 hours
[4] = Table 2B CH-11 Ab-induced apoptosis, then 400 ng/mL CH-11 Ab 24 hours

IL-2: human recombinant cytokine, purchased from Peprotech
histopathology findings, treated tumor vs control tumor (H&NSCC tumor): ↑ LI, ↑ necrosis, ↑ fibrosis
mean % of FITC-VAD-FMK+ cells ± SD [1, 3]: 22.2 ± 2.7%
mean % of FITC-VAD-FMK+ cells ± SD [1, 4]: 31.7 ± 3.0%
mean % of FITC-VAD-FMK+ cells ± SD [2, 3]: 21.9 ± 2.7%
mean % of FITC-VAD-FMK+ cells ± SD [2, 4]: 44.2 ± 6.9%
